Earlier results, collected in article PMC8329336, “The Role of Co-Signaling Molecules in Psoriasis and Their Implications for Targeted Treatment” (Frontiers in Pharmacology, 2021).
Like-named read-outs stand apart in the source and are kept apart here.

Columns and labels:
[1] = test system: CD80, CD86; design: method as in Abrams et al., 1999; Abrams et al., 2000; settings: Phase I clinical trials, ref Abrams et al., 1999, 2000
[2] = test system: CD80, CD86; design: method as in Mease et al., 2011, 2017; Strand et al., 2018; settings: Phase III, ref Mease et al., 2011, 2017, Strand et al., 2018; for improvement in PsA (patient-reported outcomes): patients with active PsA
[3] = test system: CD80 and CD86; design: method as in Zizzo et al., 2018; settings: compared with CD28; ref Zizzo et al., 2018
[4] = test system: human B cells; design: method as in Lorenzetti et al., 2019; settings: ref Lorenzetti et al., 2019
[5] = test system: CD80, CD86; design: method as in Mease et al., 2011; Iannone and Lapadula, 2012; settings: ref Mease et al., 2011; Iannone and Lapadula, 2012
[6] = test system: CD80, CD86
[7] = listed as Abatacept (CTLA-4 Ig)

With “Abatacept: soluble, fully human fusion protein: extracellular domain of CTLA-4 linked to the Fc portion of human IgG1” as the substance, how does the “clinical improvement and cytopathological reversal of psoriatic plaques” value [1] read?
The value was “in a dose-dependent manner”.

What about the “improvement in PsA (patient-reported outcomes)” value [2] of the same substance?
The value was “significantly improved”.

And the “improvement in PsA (patient-reported outcomes)” value [2, 7]?
The value was “significant improvement”.

And the “impact on psoriasis (skin) lesions” value [2]?
Its value is “only a modest benefit”.

And the “impact on psoriasis (skin) lesions” value [2, 7]?
The value was “Modest impact”.

What about the “affinity for CD80 and CD86 on APCs” value [3] of the same substance?
The value was “much higher affinity compared with CD28”.

And the “CD80 and CD86 expression and memory formation” value [4]?
The value was “directly modulate”.

What about the “usefulness in the therapy of cutaneous psoriasis” value [5] of the same substance?
Its value is “less useful”.

What about the “value for the treatment of PsA” value [5] of the same substance?
The value was “valuable”.

What about the “overall risk of infections, malignancies or autoimmune diseases” value ([6]; in vivo) of the same substance?
The value was “did not lead to an overall increased risk”.

What about the safety and tolerability ([6]; ref Ozen et al., 2019) of the same substance?
The safety and tolerability was “safe and well-tolerated”.
